{"source": "patent US8175815B2", "about": "“Method for assessing absorption properties of low solubility compounds” (F. Hoffmann-La Roche AG, priority 2006, dated 2012)", "key": {"[1]": {"conditions": "buffer + 1% w/v HP-b-CD, * = anticipated salt limit exceeded"}, "[2]": {"conditions": "buffer, * = anticipated salt limit exceeded"}}, "note": "Like-named read-outs stand apart in the source and are kept apart here.", "data": [{"smiles": "CCCCc1oc2ccccc2c1C(=O)c1cc(I)c(OCCN(CC)CC)c(I)c1", "note": "[amiodarone]", "values": [{"measurement": "S(pH 7.4)", "setting": "buffer + 1% w/v HP-b-CD", "result": 14.7, "unit": "μg mL^−1"}, {"measurement": "S(pH 5.0)", "setting": "[1]", "result": "4188* μg mL^−1"}, {"measurement": "S(pH 6.2)", "setting": "[1]", "result": "245* μg mL^−1"}, {"measurement": "S(pH 5.0)", "setting": "[2]", "result": 27, "unit": "μg mL^−1"}, {"measurement": "S(pH 6.2)", "setting": "[2]", "result": 1.7, "unit": "μg mL^−1"}, {"measurement": "S(pH 7.4)", "setting": "[2]", "result": 0.11, "unit": "μg mL^−1"}]}]}
